Data from ChEMBL document CHEMBL4049419, “Structure-Based Discovery of New Antagonist and Biased Agonist Chemotypes for the Kappa Opioid Receptor” (J Med Chem, 2017).

Chains of the proteins cited; added tags and fusions are not shown.
UniProt P35372, whole entry, looked up: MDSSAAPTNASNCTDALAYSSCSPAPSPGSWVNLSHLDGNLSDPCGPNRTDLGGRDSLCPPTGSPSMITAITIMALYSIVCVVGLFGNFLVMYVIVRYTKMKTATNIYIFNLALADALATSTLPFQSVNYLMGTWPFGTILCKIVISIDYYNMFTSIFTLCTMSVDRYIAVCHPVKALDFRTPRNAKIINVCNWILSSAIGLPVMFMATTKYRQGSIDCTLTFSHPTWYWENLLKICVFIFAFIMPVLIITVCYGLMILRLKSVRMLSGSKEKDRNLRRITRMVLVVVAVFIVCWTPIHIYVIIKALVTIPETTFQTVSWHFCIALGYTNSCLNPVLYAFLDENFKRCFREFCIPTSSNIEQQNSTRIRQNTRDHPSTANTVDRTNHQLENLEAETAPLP
UniProt P41143, whole entry, looked up: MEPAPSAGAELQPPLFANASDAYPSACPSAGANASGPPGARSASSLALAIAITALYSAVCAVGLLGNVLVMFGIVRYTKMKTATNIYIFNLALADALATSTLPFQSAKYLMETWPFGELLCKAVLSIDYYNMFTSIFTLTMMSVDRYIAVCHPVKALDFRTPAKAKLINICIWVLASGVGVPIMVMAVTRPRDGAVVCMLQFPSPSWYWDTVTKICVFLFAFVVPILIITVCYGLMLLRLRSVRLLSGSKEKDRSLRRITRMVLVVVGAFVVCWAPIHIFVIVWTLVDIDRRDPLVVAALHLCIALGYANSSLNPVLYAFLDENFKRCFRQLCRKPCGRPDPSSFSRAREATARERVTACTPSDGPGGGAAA

What was measured:
[1] = molecular target: Mu-type opioid receptor (Homo sapiens) (UniProt P35372); assay: Agonist activity at MOR (unknown origin) expressed in HEK293T cells coexpressing Gi assessed as Gi-mediated inhibition of cAMP production incubated for 15 mins followed by Gs activator isoproterenol addition measured after 15 mins by luciferase reporter gene assay relative to DAMGO
[2] = molecular target: Delta-type opioid receptor (Homo sapiens) (UniProt P41143); assay: Agonist activity at DOR (unknown origin) expressed in HEK293T cells coexpressing Gi assessed as Gi-mediated inhibition of cAMP production incubated for 15 mins followed by Gs activator isoproterenol addition measured after 15 mins by luciferase reporter gene assay relative to DADLE

Row | Compound | inhibition [1] | inhibition [2]
1 | CC(c1cccc(O)c1)N(C)Cc1nccn1CC(F)(F)F (centres undefined) | 70% | 50%
2 | CC(NCc1nccn1C)c1cccc(O)c1 (centres undefined) | 70% | 50%
